Results from PubChem BioAssay (NCI).
The entries are a selection whose mix differs from that of the whole data set.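 For each line, cells grew in 96-well plates with the test compound present at a single concentration for 48 hours.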 Calls of active or inactive are those of the source. Rule for the calls: active = growth percent below 10; inactive = the rest.

How the values were obtained:
Test in all cases: NCI-60 one-dose screen, 48 h (100 = growth as untreated, 0 = no growth, -100 = all killed)
Details in all cases: 10 µM unless noted
MOLT-4 leukemia = test system: MOLT-4 leukemia
SR leukemia = test system: SR leukemia
RPMI-8226 leukemia = test system: RPMI-8226 leukemia
OVCAR-8 ovarian = test system: OVCAR-8 ovarian
OVCAR-5 ovarian = test system: OVCAR-5 ovarian
OVCAR-4 ovarian = test system: OVCAR-4 ovarian
SK-OV-3 ovarian = test system: SK-OV-3 ovarian
IGROV1 ovarian = test system: IGROV1 ovarian
OVCAR-3 ovarian = test system: OVCAR-3 ovarian
HS 578T breast = test system: HS 578T breast

SMILES	growth (MOLT-4 leukemia)	growth (SR leukemia)	growth (RPMI-8226 leukemia)	growth (OVCAR-8 ovarian)	growth (OVCAR-5 ovarian)	growth (OVCAR-4 ovarian)	growth (SK-OV-3 ovarian)	growth (IGROV1 ovarian)	growth (OVCAR-3 ovarian)	growth (HS 578T breast)
Cn1c(=O)c2[nH]c(N(CCCl)CCCl)nc2n(C)c1=O	inactive: 90.8%	inactive: 91.2%	inactive: 97.3%	inactive: 94.9%	inactive: 103%	inactive: 103%	inactive: 99.7%	inactive: 93.3%	inactive: 106%	–
CCCNC(=O)c1ccc(N(CCCl)CCCl)cc1	inactive: 107%	inactive: 108%	inactive: 94.7%	inactive: 92.4%	inactive: 104%	inactive: 100%	inactive: 91.1%	inactive: 105%	inactive: 108%	–
O=[As](O)(c1ccccc1Br)c1ccccc1Br	inactive: 95%	inactive: 89.3%	inactive: 104%	inactive: 109%	inactive: 103%	inactive: 106%	inactive: 103%	inactive: 113%	inactive: 103%	inactive: 107%
Cc1ccc(C)c(C(=O)N(CCCl)CCCl)c1	inactive: 110%	inactive: 101%	inactive: 103%	inactive: 102%	inactive: 102%	inactive: 110%	inactive: 97.7%	inactive: 99.2%	inactive: 95.8%	–
N/C(=N/[N+](=O)[O-])N(CCBr)N=O	inactive: 90.5%	inactive: 81.9%	inactive: 104%	inactive: 97.4%	inactive: 105%	inactive: 120%	inactive: 98.9%	inactive: 100%	inactive: 97.3%	inactive: 107%
Cc1nn(Cc2ccccc2)c(C)c1C1(O)C[C@H](CC#N)OC1=O (some centres not stated)	inactive: 128%	inactive: 118%	inactive: 108%	inactive: 112%	inactive: 107%	inactive: 115%	inactive: 113%	inactive: 121%	inactive: 135%	–
O=C(O[C@H]1CN2CCC1CC2)C1NCc2ccccc2[C@@H]1c1ccccc1 (some centres not stated)	inactive: 98.3%	inactive: 85%	inactive: 91.5%	inactive: 104%	inactive: 93.3%	inactive: 108%	inactive: 98.3%	inactive: 92.9%	inactive: 102%	inactive: 93.3%
N#CC(C#N)=C(C#N)N(CCCl)CCCl	inactive: 65.4%	inactive: 50.5%	inactive: 102%	inactive: 96.3%	inactive: 108%	inactive: 101%	inactive: 115%	inactive: 83.7%	inactive: 100%	inactive: 102%
O=P(CCl)(Sc1ccc(Cl)cc1)N(CCCl)CCCl (configuration not stated)	inactive: 82.8%	inactive: 86%	inactive: 77.6%	inactive: 91.2%	inactive: 92.9%	inactive: 84.6%	inactive: 97.5%	inactive: 96.4%	inactive: 98.1%	–
O=P1(N(CCCl)CCCl)NCCC(C(F)(F)F)O1 (configuration not stated)	inactive: 109%	inactive: 98.9%	inactive: 101%	inactive: 108%	inactive: 101%	inactive: 103%	inactive: 104%	inactive: 110%	inactive: 111%	inactive: 97.8%
COc1ccc([As](=O)(O)O)cc1	inactive: 101%	inactive: 90.1%	inactive: 102%	inactive: 99.7%	inactive: 103%	inactive: 111%	inactive: 119%	inactive: 111%	inactive: 108%	–
CCOC(=O)NC(c1ccccc1[N+](=O)[O-])P(=O)(O)Nc1ncn[nH]1 (configuration not stated)	inactive: 116%	inactive: 109%	inactive: 102%	inactive: 107%	inactive: 106%	inactive: 112%	inactive: 108%	inactive: 101%	inactive: 109%	inactive: 118%
CC(/C=N/N=C(\N)N[N+](=O)[O-])=N\N=C(/N)N[N+](=O)[O-]	inactive: 113%	inactive: 128%	inactive: 95.6%	inactive: 104%	inactive: 100%	inactive: 99.5%	inactive: 109%	inactive: 113%	inactive: 116%	–
O=[As](O)(O)c1ccc(I)cc1	inactive: 99.2%	inactive: 103%	inactive: 99.6%	inactive: 98.1%	inactive: 106%	inactive: 106%	inactive: 99.9%	inactive: 108%	inactive: 108%	–
O=C(N(CCCl)CCCl)C(Cl)(Cl)Cl	inactive: 91.5%	inactive: 96.1%	inactive: 103%	inactive: 102%	inactive: 105%	inactive: 91.6%	inactive: 114%	inactive: 108%	inactive: 117%	–
O=P(Nc1ncccn1)(N1CC1)N1CC1	inactive: 107%	inactive: 103%	inactive: 116%	inactive: 94.5%	inactive: 102%	inactive: 107%	inactive: 115%	inactive: 116%	inactive: 121%	inactive: 99.6%

SMILES	growth (MOLT-4 leukemia)	growth (SR leukemia)	growth (RPMI-8226 leukemia)	growth (OVCAR-8 ovarian)	growth (OVCAR-5 ovarian)	growth (OVCAR-4 ovarian)	growth (SK-OV-3 ovarian)	growth (IGROV1 ovarian)	growth (OVCAR-3 ovarian)	growth (HS 578T breast)
CCCCOP(N)(=O)OCCCC	inactive: 100%	inactive: 99.5%	inactive: 106%	inactive: 99%	inactive: 107%	inactive: 110%	inactive: 108%	inactive: 105%	inactive: 112%	–
Cc1ccccc1CN(CCCl)Cc1ccccc1C	inactive: 94.9%	inactive: 83.9%	inactive: 87.4%	inactive: 88.9%	inactive: 114%	inactive: 107%	inactive: 110%	inactive: 114%	inactive: 94.3%	inactive: 104%
CC(=O)NC(C)C(=O)N(CC(C)Cl)CC(C)Cl (configuration not stated)	inactive: 96.5%	inactive: 94.9%	inactive: 93.6%	inactive: 94.2%	inactive: 94.8%	inactive: 77.2%	inactive: 107%	inactive: 108%	inactive: 106%	–
Nc1ccc(N(CCCl)CCCl)cc1	inactive: 18.2%	active: 3.14%	inactive: 84%	inactive: 83.8%	inactive: 95.7%	inactive: 96.3%	inactive: 82.4%	inactive: 67.2%	inactive: 79.8%	inactive: 107%
ClCCNCc1cccc(Cl)c1	inactive: 84.8%	inactive: 90.5%	inactive: 102%	inactive: 99.4%	inactive: 107%	inactive: 97.7%	inactive: 97.7%	inactive: 110%	inactive: 114%	–
O=C(O)CCc1ccc(N(CCCl)CCCl)cc1	inactive: 80.7%	inactive: 45%	inactive: 93.8%	inactive: 88.8%	inactive: 103%	inactive: 100%	inactive: 106%	inactive: 85.7%	inactive: 98.8%	–
Cc1ccccc1C(=O)N(CCCl)CCCl	inactive: 94.1%	inactive: 95.5%	inactive: 97.4%	inactive: 100%	inactive: 101%	inactive: 101%	inactive: 105%	inactive: 101%	inactive: 112%	–
NCCNCCCl	inactive: 102%	inactive: 79.1%	inactive: 93.1%	inactive: 94.5%	inactive: 105%	inactive: 93%	inactive: 106%	inactive: 108%	inactive: 107%	–
S=C(Nc1ccccc1)N(CCCl)CCCl	inactive: 95.3%	inactive: 91.9%	inactive: 91.7%	inactive: 97.5%	inactive: 97.2%	inactive: 109%	inactive: 113%	inactive: 108%	inactive: 114%	–
CC(C)N(CCCl)/N=N/c1nc2nc[nH]c(=O)c2[nH]1	inactive: 115%	inactive: 100%	inactive: 111%	inactive: 105%	inactive: 102%	inactive: 106%	inactive: 99.7%	inactive: 103%	inactive: 108%	inactive: 123%
ClCCNCC1COc2ccccc2O1 (configuration not stated)	inactive: 99.7%	inactive: 90.6%	inactive: 102%	inactive: 99.9%	inactive: 102%	inactive: 112%	inactive: 104%	inactive: 108%	inactive: 104%	inactive: 95.4%
COc1ccc(C(=O)N(CCCl)CCCl)cc1OC	inactive: 83%	inactive: 74%	inactive: 98.2%	inactive: 97.3%	inactive: 96.6%	inactive: 103%	inactive: 104%	inactive: 105%	inactive: 109%	–
C/C(N)=N/P(=O)(Oc1ccccc1)Oc1ccccc1	inactive: 95.7%	inactive: 98.7%	inactive: 107%	inactive: 103%	inactive: 98.4%	inactive: 103%	inactive: 105%	inactive: 102%	inactive: 111%	inactive: 109%
CCP(Cl)(Cl)(Cl)CC	inactive: 94.5%	inactive: 86.3%	inactive: 95.9%	inactive: 97.1%	inactive: 96.5%	inactive: 91.2%	inactive: 95.2%	inactive: 106%	inactive: 104%	–
CC(Cc1ccccc1)N(CCCl)Cc1ccccc1 (configuration not stated)	inactive: 98.9%	inactive: 87.4%	inactive: 92.3%	inactive: 95.4%	inactive: 95%	inactive: 109%	inactive: 105%	inactive: 101%	inactive: 98.7%	inactive: 102%
